Test results taken from ChEMBL document CHEMBL1144459, “Discovery of potent thiosemicarbazone inhibitors of rhodesain and cruzain” (Bioorg Med Chem Lett, 2005).

Sequences of proteins named here, by UniProt entry; tags and fusion partners are left off. A change or cut given only in a name is not applied to a line headed by its entry.
UniProt P25779: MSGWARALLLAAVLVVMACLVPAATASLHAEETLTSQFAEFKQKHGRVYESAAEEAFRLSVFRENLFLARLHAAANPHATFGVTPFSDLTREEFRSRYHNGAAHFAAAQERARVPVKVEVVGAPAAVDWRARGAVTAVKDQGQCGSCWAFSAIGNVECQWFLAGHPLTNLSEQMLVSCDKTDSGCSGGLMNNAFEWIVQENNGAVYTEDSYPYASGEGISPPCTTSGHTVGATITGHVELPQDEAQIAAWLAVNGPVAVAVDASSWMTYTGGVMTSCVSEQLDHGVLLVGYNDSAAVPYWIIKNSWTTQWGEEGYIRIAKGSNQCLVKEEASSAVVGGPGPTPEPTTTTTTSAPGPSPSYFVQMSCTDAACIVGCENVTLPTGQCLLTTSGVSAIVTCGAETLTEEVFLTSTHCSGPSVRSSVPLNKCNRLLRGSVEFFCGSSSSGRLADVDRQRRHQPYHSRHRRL

Biological target: Cruzipain (Trypanosoma cruzi, UniProt P25779)
Experiment: Inhibitory concentration against cruzain of Trypanosoma cruzi

Q: With `CC/C(=N\NC(N)=S)c1cccc(Br)c1` as the compound, how does the IC50 read?
A: Its IC50 is 310 nM.
